# Reference: ChEMBL document CHEMBL5634123, “Design and synthesis of 1H-benzo[d]imidazole selective HDAC6 inhibitors with potential therapy for multiple myeloma” (Eur J Med Chem, 2023)
# Experiments:
# [1] = Selectivity index, ratio of IC50 for HDAC1 (unknown origin) to IC50 for HDAC6 (unknown origin)
# RPMI-8226 = experiment: Induction of cell cycle arrest at G2 phase in human RPMI-8226 cells at 0.5 uM incubated for 24 hrs by PI staining based flow cytometry (reference value: 18.3 %); format: functional
Compound,Ratio IC50 [1],Activity (RPMI-8226) [%]
Cn1c(CNc2cccc3ccccc23)nc2cc(C(=O)NO)ccc21,142,–
Cn1c([C@@H](Cc2ccccc2)NCc2ccccc2)nc2cc(C(=O)NO)ccc21,243,24.3
CCCCN(Cc1nc2cc(C(=O)NO)ccc2n1C)c1ccccc1,66,–
CN(Cc1nc2cc(C(=O)NO)ccc2n1C)c1ccccc1,64,–
Cn1c(CNCc2ccccc2)nc2cc(C(=O)NO)ccc21,68,–
C[C@@H](NCc1ccccc1)c1nc2cc(C(=O)NO)ccc2n1C,144,–
